# Patent publication US20100256233A1, “SYSTEMS, METHODS AND COMPOSITIONS FOR REDUCTION OF INJURY FROM RADIATION EXPOSURE” (priority 2007, published 2010)
# Entries after “also recorded” stand apart in the source; their conditions may differ.
# Assays:
# [1] = test system: acetylation of histone H3; assay: Western blot of acetylated histones in bone marrow after HDACi administration (HDACi activity); type: in vivo, mouse; settings: 10 h after first dose and 5 h after second dose, s.c., TSA 0.5 + 0.5 mg/kg, VPA 600 + 300 mg/kg
# Procedure: Western blot analyses were used to confirm the activity of VPA and TSA. Histone H3 and H4 acetylation activity of fresh mouse spleen and bone marrow after administration of VPA or TSA was measured by Western blot analyses ex vivo. Mice were administered two doses of HDAC inhibitors subcutaneously, one dose at 0 h (TSA, 0.5 mg/kg; VPA, 600 mg/kg) and one dose at 5 h (TSA, 0.5 mg/kg; VPA, 300 mg/kg). […] or spleens were harvested at 10 h.
# VPA is a class I HDAC inhibitor and is expected to increase acetylation of histone H3. TSA is not selective and is expected to increase acetylation of histones non-specifically. FIG. 1 is a graph showing the acetylation of histone H3 relative to a beta-actin control in test samples. […] Bars indicate individual mice. These studies established that both TSA and VPA acetylated histones in our model at the doses used.
# bone marrow stem cells = assay: Spleen colony-forming assay after sublethal TBI; type: in vivo, BALB/c mice; settings: 5.5 Gy TBI, 400 mg/kg i.p. 1 h after X rays, 12 days after irradiation, P<0.001
# Procedure: Twelve days after exposure to 5.5 Gy alone or in combination with either valproic acid (400 mg/kg administered i.p. 1 h after radiation exposure) or trichostatin A (0.5 mg/kg i.p. administered 1 h after radiation exposure), mice were anesthetized with ketamine (100 mg/kg) and xylazine (10 mg/kg) for blood collection. Blood (0.5 ml) obtained by cardiac puncture with a 25-gauge needle was placed into heparinized anticoagulant tubes and shipped to ANTECH Diagnostics (Alsip, Ill.) for analysis of red and white blood cell counts using their CBC differential small mammalian protocol. The same mice were used for the spleen colony-forming assay.
# The numbers of spleen colony-forming units were measured to assess the in vivo effect of HDACi on bone marrow cell survival. Groups of BALB/c mice were exposed to 5.5 Gy alone or in combination with HDACi as described. Spleens were excised and examined for colony formation 12 days after the sublethal TBI using a dissecting microscope.
# The effect of HDAC inhibition on the survival of bone marrow stem cells was assayed using a variant of the spleen colony assay of Till and McCulloch in which endogenous nodules on the spleens of mice are counted after a sublethal dose of TBI (4-6). FIG. 2 illustrates the results.
# BALB/c mice = assay: Lethality / survival after total-body irradiation (TBI); type: in vivo; settings: for ED50 (time at which 50% of mice were dead): 7 Gy alone 13 days; for median survival: without VPA 12 days; for time to 50% lethality: 7 Gy alone day 13
# Procedure: All studies were performed with prior approval and in accordance with institutional and national standards of animal care. The studies were approved by an Institutional Animal Care and Use Committee (“IACUC”) and were performed in an accredited AAALAC facility. Male BALB/c mice (Charles River Laboratories) 8 to 10 weeks old were allowed to acclimate for 1 week prior to the start of the study. Mice were maintained in environment-controlled (temperature and lighting) animal facilities, provided food and water ad libitum, and randomly assigned to experimental groups.
# TBI was delivered using a 185 TBq (5000 Ci) ^137Cs source (Mark I, J. L. Shepherd and Associates, San Fernando, Calif.). Doses ranged from sublethal exposures of 5.5 Gy to lethal exposures of 6.5 Gy and a supralethal exposure of 7.0 Gy. The dose rate was approximately 1 Gy per minute.
# Survival was measured in mice after TBI with and without HDACi. Groups of mice were exposed to 6.5 or 7.0 Gy alone or in combination with HDACi, as described above. Survival was defined as the time from irradiation to the time of euthanasia, which occurred when animals had lost 20% or more of their body weight.
smiles,measurement,setting,value
"CCCC(CCC)C(=O)O [VPA, valproic acid]",increase in acetylated form of histone H3 relative to the beta-actin control,[1],three to four-fold increase
same,number of spleen colonies vs mice exposed to 5.5 Gy alone,bone marrow stem cells,sevenfold higher
same,survival,"BALB/c mice; 6.5 Gy TBI, VPA 600 mg/kg 24 h before, n=4",100%
same,survival,"BALB/c mice; 6.5 Gy TBI, VPA 600 mg/kg 24 h before, one-sided logrank P<0.05",increased survival significantly
same,deaths after TBI,"BALB/c mice; 6.5 Gy TBI, VPA one day before radiation exposure (FIG. 3)",no mice died
same,survival time relative to TBI alone,"BALB/c mice; 7 Gy TBI, VPA 400 mg/kg 1 h after (FIG. 6)",increase in survival
same,ED50 (time at which 50% of mice were dead),"BALB/c mice; 7 Gy TBI, VPA 400 mg/kg 1 h after, n=12",26.5 days
same,survival time relative to TBI alone,"BALB/c mice; 7 Gy TBI, VPA 400 mg/kg 4 h after (FIG. 6)",increase in survival
same,survival time relative to TBI alone,"BALB/c mice; 7 Gy TBI, VPA 400 mg/kg 24 h before (FIG. 6)",increase in survival
same,ED50 (time at which 50% of mice were dead),"BALB/c mice; 7 Gy TBI, VPA 400 mg/kg 24 h before, n=17",17 days
same,median survival,"BALB/c mice; 7 Gy TBI, VPA 400 mg/kg",14 days
same,survival,"BALB/c mice; 7.0 Gy TBI, VPA 600 mg/kg 1 h after, P<0.0001",increased survival significantly
same,survival,"BALB/c mice; 7.0 Gy TBI, VPA 600 mg/kg 24 h before, P<0.0001",increased survival significantly
same,median survival,"BALB/c mice; 7 Gy TBI, VPA 600 mg/kg",17 days
same,fraction of mice surviving for at least 2 months,"BALB/c mice; 7 Gy TBI, VPA 400 or 600 mg/kg",about half
same,survival,"BALB/c mice; 7 Gy TBI, VPA 1 h after TBI, dose of at least 400 mg/kg",increased survival
same,time to 50% lethality,"BALB/c mice; 7 Gy TBI, VPA 1 hour after radiation (FIG. 4)",23 days
same,time to 50% lethality,"BALB/c mice; 7 Gy TBI, VPA given 1 day before TBI (FIG. 4)",17 days
same,survival,"BALB/c mice; 7 Gy TBI, VPA single dose 200 mg/kg, 200 mg/kg",not effective; also recorded: yielded no benefit
same,survival,BALB/c mice; VPA given 1 h before radiation exposure (data not shown),survival was not increased
same,lethality (time for mice to lose 20% or more of their weight),BALB/c mice; after TBI,reduce lethality in a dose-dependent manner
same,survival,"BALB/c mice; whole-body radiation 5.5 to 7.0 Gy, VPA 400 or 600 mg/kg before or after TBI",increase in survival
